## Apparent affinities of Ab-14 variants for a coronavirus HR2 peptide

The target is the same throughout: PDVDLGDISGINAS, from the HR2 region of SARS-CoV-2 spike.

The variants keep the heavy chain, the linker and the frameworks of Ab-14 (scFv order VH, the linker GGGGSGGGGSGGGGS, VL).
VH: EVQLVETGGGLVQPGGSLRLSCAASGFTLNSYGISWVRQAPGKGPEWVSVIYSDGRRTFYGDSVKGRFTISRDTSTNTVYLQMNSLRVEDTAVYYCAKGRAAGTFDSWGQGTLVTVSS
VL: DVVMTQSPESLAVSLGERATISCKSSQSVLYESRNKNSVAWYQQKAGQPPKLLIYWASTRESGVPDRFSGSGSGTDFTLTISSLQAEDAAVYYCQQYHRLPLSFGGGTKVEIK

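The starting antibody came from a phage panning campaign against this peptide. This is the validation round: designs drawn from the data on random variants, tested in the same kind of assay. Their group label is 14L_GP_Gen (GP: Gaussian process model; Gen: genetic algorithm; a sequence that several methods proposed may carry one label only). AlphaSeq pools MATa yeast showing the antibodies with MATalpha yeast showing the peptide. After mating in shaken culture at 30 °C for 16 h, diploids were selected and their barcode pairs sequenced. A regression on co-assayed BCL2-family reference pairs converts the normalised counts of each replicate to an apparent Kd. Each pool was mated in six replicate cultures.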

The parent's light chain CDRs are KSSQSVLYESRNKNSVA, WASTRES, QQYHRLPLS; each variant's own CDRs replace them letter for letter.
Values are log10 of the apparent Kd in nM; lower means stronger binding.
A mean of the replicates is given; it leaves out those without a signal.

CDR-L1,CDR-L2,CDR-L3,"log10 Kd, replicates","log10 Kd (nM), mean",signal with controls
KLSQSVPYESRMKNSVA,NASTRMS,QQYHRLPLS,0.15 / -0.22 / -0.33 / -0.05 / -0.23 / -0.11,-0.13,0 of 18
KLYQSVLYESRNKNSVA,NASTRES,QQYHRLPLS,0.21 / -0.04 / -0.02 / -0.11 / 0.20 / -0.01,0.04,0 of 18
KLSQSQLYESRNKNAVA,NASQRES,QQYHRLPLS,0.83 / 1.87 / 1.14 / 1.24 / 0.90 / 1.19,1.19,0 of 18
KLSQSDLYESRMKNNVA,NASTRES,QQYHRLPLS,0.57 / 0.37 / 0.47 / 0.41 / 0.64 / 1.62,0.68,0 of 18
KLSQSQLYESRNKNSVA,EASTRLS,QQYHRLPLS,0.07 / -0.07 / -0.23 / -0.31 / -0.26 / -0.05,-0.14,0 of 18
HLSQSVLYESRNKNSVA,NASYRES,QQYHRLPLS,0.33 / 0.17 / 0.02 / -0.02 / 0.04 / 0.09,0.11,3 of 18 (1.82)
KLSQSVLYESRNKNSVA,NAGTRES,QQYHRLPLS,-0.27 / -0.46 / -0.66 / -0.63 / -0.76 / -0.39,-0.53,0 of 18
KLSQSVGYESRNKNSVA,NASTREQ,QQYHRLPLS,0.13 / -0.17 / -0.01 / -0.34 / -0.04 / -0.29,-0.12,0 of 18
KLKQSVDYESRNKNSVA,NASTRES,QQYHRLPLS,1.01 / 0.90 / 0.90 / 1.17 / 0.97 / 1.22,1.03,1 of 18 (5.19)
KLSQSELYESRNKNSVA,MASQRES,QQYHRLPLS,0.29 / 0.28 / 0.06 / 0.03 / 0.24 / 0.27,0.20,1 of 18 (3.38)
KLPQSVLYESRNKNSVA,NASTRSS,QQYHRLPLS,0.33 / 0.23 / 0.02 / 0.05 / 0.21 / 0.34,0.20,0 of 18
KVSPSYLYESRNKNAVA,EASTRES,QQYHRLPLS,-0.47 / -0.74 / -0.63 / -0.76 / -0.81 / -0.60,-0.67,1 of 18 (2.54)
KVSQSFLYESRNKNSVA,HASTRES,QQYHRLPLS,0.16 / -0.10 / -0.22 / -0.32 / -0.06 / -0.10,-0.11,0 of 18
KLPQSELYESRNKNSVA,HASQRES,QQYHRLPLS,0.08 / 0.06 / -0.40 / -0.53 / 0.08 / -0.23,-0.16,1 of 18 (1.16)
KLPQSWLYESRNKNSVA,NASQRLS,QQYHRLPLS,0.03 / -0.07 / -0.07 / -0.12 / -0.06 / 0.13,-0.03,1 of 18 (2.21)
YLSQSVLYESRNKNSVA,NASTREQ,QQYHRLPLS,0.24 / 0.43 / 0.49 / 0.05 / 0.52 / 0.37,0.35,0 of 18
KVSQSVLYESRNKNSVA,NASTRES,QDYHRLPLM,1.12 / 1.05 / 1.28 / 0.47 / 1.73 / 1.60,1.21,0 of 18
KLYQSWLYESRNKNSVA,NASTRES,QQYHRLPLS,-0.04 / -0.14 / -0.11 / -0.14 / -0.14 / -0.01,-0.10,2 of 18 (2.70)
KMSQSELYESRNKNSVA,NASQRLS,QQYHRLPLS,0.14 / 0.15 / -0.07 / -0.19 / 0.01 / 0.03,0.01,0 of 18
KVSQSVLYESRNKNNVA,NASTRES,QQYHRLPLS,0.25 / 0.09 / 0.00 / 0.06 / 0.06 / 0.12,0.10,2 of 18 (3.32)
KLSQSVLYESRNGNSVA,NASTRES,QQYHRLPLS,-0.17 / -0.22 / -0.30 / -0.35 / -0.21 / 0.04,-0.20,0 of 18
KLQQSALYESRNKNSVA,GASTRES,QQYHRLPLS,0.09 / 0.26 / 0.18 / 0.13 / 0.09 / 0.19,0.15,3 of 18 (2.80)
KVSGSMLYESRNKNSVA,NASTRES,QQYHRLPLS,0.00 / -0.13 / -0.32 / -0.38 / -0.24 / 0.11,-0.16,1 of 18 (3.72)
KVSQSVLYESRMKNSVA,NASTRES,QQYHRLPLS,-0.29 / -0.52 / -0.54 / -0.65 / -0.45 / -0.32,-0.46,1 of 18 (2.06)
KLQQSYLYESRNKNSVA,NASQRES,QQYHRLPLS,0.01 / -0.07 / -0.13 / -0.23 / -0.22 / -0.02,-0.11,0 of 18
KLSQSMLYESRMKNSVA,NASQRMS,QQYHRLPLS,-0.20 / -0.17 / -0.20 / -0.23 / -0.08 / 0.39,-0.08,1 of 18 (3.00)
KLQQSELYESRNKNSVA,SASTRMS,QQYHRLPLS,0.23 / -0.10 / -0.07 / -0.19 / -0.02 / 0.17,0.00,3 of 18 (2.78)
HLSQSVLYESRNKNSVA,EASTRES,QQYHRLPLS,-0.34 / -0.40 / -0.44 / -0.53 / -0.44 / -0.35,-0.42,2 of 18 (4.05)
KLEQSELYESRNKNSVA,EASQRES,QQYHRLPLS,-0.09 / -0.15 / -0.16 / -0.33 / -0.25 / 0.00,-0.16,0 of 18
KLQQSMEYESRNKNSVA,NASTRES,QQYHRLPLS,0.04 / 0.02 / 0.00 / -0.19 / -0.19 / -0.03,-0.06,1 of 18 (3.03)
QLSQSVLYESRNKNSVA,NASQRES,QQYHRLPLS,0.20 / -0.12 / -0.09 / -0.13 / -0.20 / -0.14,-0.08,1 of 18 (1.88)
KVQQSWLYESRNKNSVA,NASQRLS,QQYHRLPLS,0.76 / 0.41 / 0.57 / 0.24 / 0.56 / 1.34,0.65,0 of 18
KLQQSVLYESRNKNSVA,EASTRCS,QQYHRLPLS,0.78 / 0.64 / 0.45 / 0.41 / 0.67 / 0.60,0.59,3 of 18 (2.40)
KLSQSVPYESRNKNSVA,EASTREE,QQYHRLPLS,0.01 / -0.12 / -0.10 / -0.22 / -0.36 / -0.09,-0.15,1 of 18 (2.26)
KVSQSVLYESRNKNSVA,NASQRES,QQYHRLPLS,-0.22 / -0.29 / -0.34 / -0.48 / -0.32 / -0.25,-0.32,1 of 18 (2.41)
KLSQSDLMESRNKNSVA,EASTRES,QQYHRLPLS,-0.09 / -0.02 / -0.18 / -0.31 / -0.47 / 0.24,-0.14,0 of 18
KLDQSVLYESRNKNSVA,NASTRFS,QQYHRLPLS,-0.11 / -0.23 / -0.31 / -0.45 / -0.32 / -0.20,-0.27,1 of 18 (2.98)
KLSWSELYESRNKNSVA,NASTRES,QQYHRLPLS,-0.25 / -0.32 / -0.21 / -0.41 / -0.25 / -0.16,-0.27,0 of 18
KLSQSDLYESRNSNSVA,NASQRES,QQYHRLPLS,0.43 / 0.19 / -0.05 / 0.03 / 0.03 / 0.30,0.15,1 of 18 (1.96)
KVSQSFLYESRNKNSVA,EASQRES,QQYHRLPLS,-0.22 / -0.25 / -0.28 / -0.29 / -0.45 / 0.07,-0.24,1 of 18 (2.08)
KLSMSYLYESRNKNSVA,NASTRES,QQYHRLPLS,0.07 / -0.02 / -0.14 / -0.09 / -0.20 / 0.02,-0.06,0 of 18
KLMQSVLYESRNKNSVA,EASQRES,QQYHRLPLS,0.62 / 0.35 / 0.20 / 0.42 / 0.38 / 0.82,0.46,0 of 18
KVQQSWLYESRNKNSVA,NASTRCS,QQYHRLPLS,-0.08 / -0.14 / -0.30 / -0.14 / -0.12 / -0.06,-0.14,2 of 18 (4.24)
KLSQSNLYESRNKNSVA,NASTRED,QQYHRLPLS,-0.16 / -0.35 / -0.46 / -0.74 / -0.55 / -0.47,-0.46,0 of 18

The authors averaged sequences with at least three values out of six and counted those with two or fewer as poor binders.
The range of this assay differs from that of the first round, and the authors advise against merging the two.
Nonspecific signal, from three strains lacking the peptide, appeared in 4% of pairings of all light chain designs, centred on 2.64 (5% of these signals below 1.59); values are not corrected for it. For each scFv, signals with the empty controls are counted beside the result, with their mean in brackets.
Of ten entries with the parent sequence, four were seen in most replicates (averages 0.34 to 2.37), three in one and three in none, so single entries are noisy.

The measurements come from Li et al. 2023 (doi:10.1038/s41467-023-39022-2) through the FLAb antibody collection.